Experimental data from patent US7371225B2, “Method for convection enhanced delivery of therapeutic agents” (The United States of America as represented by the …, priority 2002, dated 2008).

Experiments:
rat putamen [1] = assay: Safety and toxicity of the CT tracer IPA-HSA after CED to the rat putamen
rat putamen [2] = conditions: in vivo
putamen [3] = assay: Quantitative autoradiography (QAR) of co-infused 14C-BSA, tissue volume of distribution; design: species or system rhesus monkeys; conditions: rhesus monkey, in vivo
Description: ^14C-methylated BSA (American Radiolabeled Chemicals, Inc., St Louis, Mo.) was co-infused with each tracer. After sacrifice, the brain was frozen at −70° C., 20-μm thick cryostat sections on collagen-coated glass slides were obtained, and exposed on a phosphor imaging plate (Fuji Medical Systems, Stamford, Conn.) along with ^14C plastic standards (American Radiolabeled Chemicals, Inc., St. Louis, Mo.) at room temperature. After one week, the imaging plate was digitally scanned in the FujiFilm BAS5000 Bio-imaging Analyzer. The images were calibrated using a previously established correlation between ^14C plastic standards and 20-μm rat brain sections containing ^14C. […] The areas of sections encompassing the perfused region were summed and multiplied by the spacing between sections. Profiles of the ^14C-BSA were obtained across the infusion in sections corresponding to the center of the infusion.

putamen [4] = tested on: putamen; design: species or system rhesus monkeys; conditions: rhesus monkey, in vivo
Description: The putamen in six adult rhesus monkeys (8-10 kg) was targeted for unilateral convection of IPA-BSA (n=3) or albumin-Gd-DTPA (n=3). Anesthesia was induced with ketamine (10 mg/kg), xylazine (0.5 mg/kg), and thiopental sodium (1 mg/kg). The animals were secured in a monkey stereotactic frame (Kopf Instruments, Tujunga, Calif.). A Hamilton 32-gauge metal blunt tip needle connected to a 250 μl Hamilton syringe (Thompson Instruments, Chantilly, Va.) was stereotactically inserted in the center of the right putamen (anteroposterior 15.5 mm, mediolateral 12 mm and dorsoventral 24.5 mm relative to the tympanic canals and the mid-sagittal sinus)^15. After a delay of 90 minutes, the infusion was begun at 1.0 μl/min. […]
CT and MRI images were analyzed in the MEDx software package (Sensor Systems, Inc., Sterling, Va.) running on a Sun workstation (Sun Microsystems, Inc., Palo Alto, Calif.). […] These were measured by volume segmentation using two different thresholds. Vd(1) was calculated as the volumes of distribution from CT and MRI containing at least 10% of the total increase in signal intensity due to the addition of contrast agent. A rectangular region of interest (ROI) over the infusion area was defined and in the corresponding site in the contralateral hemisphere, and the perfused maximal signal intensity (peak) and the unperfused maximal signal intensity (background) was measured. […]

brainstem = assay: Safety and tissue toxicity of CED of Gd-albumin conjugate in the primate brainstem; assay type: in vivo, Rhesus primates (Macaca mulatta)
Description: Primates were also observed daily for medical or neurologic difficulties over the study period (18 to 35 days). Each animal underwent postoperative videotaping within 48 hours of infusion completion and within 24 hours of euthanization.
After sacrifice, the animals' brains were perfused with phosphate buffered saline followed by 10% formalin. The brainstems were then cut coronally in 20-μm thick serial sections. Tissue sections through the entire brainsterm were histologically processed, and representative sections from each tissue block were stained with hematoxylin and eosin, Luxol fast blue, and Nissl. Immunohistochemistry for glial fibrillary acidic protein was performed.

[5] = Stability of Gd-albumin conjugate following synthesis; assay type: physicochemical
Description: Gd (III) was then reacted with the HSA-1B4M at an initial 2:1 molar ratio (Gd/1B4M) using a standard solution of Gd (III) [Gd(NO3)2] at 6.42×10^−3 M. The pH of the Gd (III) solution was adjusted to 4.5 to 5.0 using 5 M NH4OAc and was added to HSA-1B4M dropwise while mixing the reaction. The mixture was allowed to proceed for 5 to 6 hrs at room temperature with rotation. The unreacted Gd (III) was removed by adding 0.5 ml of 0.1 M EDTA solution, followed by centrifugation. The final concentration of albumin was determined spectrophotometrically by measuring the absorbance at 280 nm. The percent of Gd (III) incorporation was determined by repeating the measurement of the number of chelating agents on the protein and noting the decrease due to their occupation by Gd (III). Each HSA molecule was linked to 5 Gd molecules. A stock solution of the Gd-albumin conjugate (28 mg/ml) in phosphate buffered saline was then infused into the animals. The formula of the conjugate is believed to be albumin-(Gd-1B4M)5.
While Gd is an excellent imaging moiety for MRI, it is neurotoxic in its free state. Thus, a stable construct in which Gd is permanently bound to albumin (or other protein, dendrimer or therapeutic agent) is desirable.

rat striatum = assay: Toxicity of Gd-albumin conjugate after CED to the rat striatum; assay type: in vivo, rats (Sprague-Dawley); conditions: 10 μl CED to striatum, n=12
Description: All animal investigations were conducted in accordance with the National Institutes of Health guidelines on the use of animals in research, and were approved by the Animal Care and Use Committee of the National Institute of Neurological Disorders and Stroke. Adult male rats (Sprague-Dawley; n=12) weighing between 300 to 400 grams were anesthetized with isoflurane (2%) and placed in a Kopf stereotactic frame. A sagittal incision was made through the scalp to the level of the skull. A burr hole was placed over the right frontal region. A 32-gauge cannula attached to a 25 μl Hamilton syringe filled with Gd-bound albumin was stereotactically placed in the right striatum. The coordinates for placement of the cannula tip in the striatum were 0.5 mm anterior to bregma, 2.8 mm right of midline, and 5 mm below the level of the dura.
To distribute the infusate using convection, a non-compliant, gas-tight, infusion apparatus that has been described in detail previously was used (see, Lonser et al., “Direct convective delivery of macromolecules to the spinal cord,” J Neurosurg 89:616-622 (1998)). Briefly, the apparatus consists of a Harvard syringe pump that generates a continuous pressure gradient that is transmitted through a hydraulic drive that is attached to the infusate syringe plunger. Using this system, 10 μL Gd-albumin was delivered at a rate of 0.5 μL/minute into the striatum. […]

[6] = tested on: pontine region of the brainstem; assay: Convection-enhanced delivery (CED) of Gd-albumin conjugate to the primate brainstem with real-time and post-infusion MRI; assay type: in vivo, Rhesus primates (Macaca mulatta)

IPA-HSA: Iopanoic acid conjugated to HSA, 35-45 IPA per HSA, CT tracer used in rat toxicity study
Behavioral changes (rat putamen [1]; 7, 14 and 39 days after single convective infusion): no behavioral changes | Enhanced GFAP staining (rat putamen [1]; 14 days, edge of the infusion and along the needle track): minimal | GFAP staining, treated versus untreated hemisphere (rat putamen [1]; 39 days): no difference in GFAP staining between the treated and untreated hemispheres | Edema at the infusion site (fraction of animals) (rat putamen [1]; animals sacrificed after 7 days): ⅓ | Edema at the infusion site (rat putamen [1]; by 14 days): completely resolved | Hemorrhage at the infusion site (rat putamen [1]; rat, in vivo): No hemorrhage occurred | Reactive astrocytic proliferation surrounding the infused area (rat putamen [1]; rat, in vivo): no evidence of reactive astrocytic proliferation | Direct toxicity or immunological reaction in the brain (rat putamen [2]): no evidence of direct toxicity or immunological reaction

albumin-Gd-DTPA: albumin-Gd-DTPA conjugate, 26 DTPA ligands linked to each albumin molecule, surrogate tracer for MRI
Tissue distribution measured by QAR (putamen [3]): 3.86±1.05 | Mean Vd(1) (putamen [4]): 2.55±0.44 | Mean Vd(2) (putamen [4]): 2.62±0.28

human serum albumin conjugated to 5 gadolinium chelates of 2-(p-isothiocyanotobenzyl)-6-methyldiethylenetriamine pentaacetic acid [albumin-(Gd-1B4M)5]
Tissue architecture of brainstem sections (brainstem; Luxol fast blue, Nissl's, hematoxylin and eosin): normal tissue architecture | Glial fibrillary acidic protein staining (gliosis) (brainstem; rhesus monkey, in vivo): minimal gliosis limited to the region immediately surrounding the cannula tract | Gross examination of the brain and brainstem (brainstem; rhesus monkey, in vivo): normal weight and no evidence of edema | Neurologic deficit after infusion (brainstem; serial clinical examinations up to 35 days): No animals had a detectable neurologic deficit | Binding of Gd in the conjugate following synthesis [5]: the Gd remained completely bound | Solubility and aggregation following synthesis [5]: remain soluble, did not aggregate | Histologic analysis (rat striatum): normal tissue architecture with minimal gliosis limited to the immediate region surrounding the infusion cannula | Clinical deficits (rat striatum; observation up to 60 days): None of the animals exhibited clinical deficits | Post-infusion day 1 increase in Vd ([6]; Animal 2, compared to Vd immediately after infusion): 35% | Homogeneity of concentration of delivered infusate in tissue ([6]; MRI line profiles through infused region): homogeneous | Infusate visible on MRI through ([6]; post-infusion MRI): 4 post-infusion day | Time by which MRI intensity of the conjugate faded to that of surrounding normal tissues ([6]; post-infusion MRI, n=2): ≤ 7 post-infusion day
